Legend:
Assay type in all cases: biochemical, Human
[1] = tested on: MMP in the A549-derived extracellular vesicles; experiment: Digital detection of A549-derived extracellular vesicles through MMP activity in wells (SB substrates); details: for Extracellular vesicle concentration: at a concentration of x1, 50 fL; for Expected value λ / Number of positives / Positive ratio: Example 36, EV 5 μg/mL, reporter 5 μM, 30° C.
Description: The concentration of the solution is 10 μg/mL.
50 μL of each of the MMP detection solutions was added to 50 μL of the sample to provide a reaction solution for wells.

[2] = tested on: MMP in the MDA-MB-231-derived extracellular vesicles; experiment: Evaluation of MMP activity of MDA-MB-231-derived extracellular vesicles with 96-well plate (SensoLyte 520 MMP Substrate Sampler Kit); details: for Fluorescence change after 1 hour of reaction at 30° C.: Example 34, EV 4 μg/mL, reporter 5 μM, buffer (4); for Fluorescence change after 2 hours of reaction at 30° C.: MP, EV 3.3 μg/mL
Description: (§1) The concentration of the solution is 8 μg/mL for each of the MDA-MB-231 and A549-derived extracellular vesicles.
(§2) In addition, for detection of MMP activity, 100 μM SB2, SB6, SB7, SB9, SB10, or SB14 of SensoLyte 520 MMP Substrate Sampler Kit (Fluorimetric) AS-71170 was diluted with the buffer (4) to prepare a 10 μM MMP detection solution.
(§3) 50 μL of the MMP detection solution was added to 50 μL of each of the samples, a reaction was performed at 30° C., and MMP activity was evaluated.
The concentration of the MDA-MB-231-derived extracellular vesicles in the solution is 6.7 μg/mL.
In addition, for detection of MMP activity, 1 mM SB2, SB6, SB7, SB9, or SB10 and 1 mM Custom #2T were diluted with the buffer (4) to prepare 10 kinds of MMP detection solutions in which any one of SB2, SB6, SB7, SB9, and SB10 and Custom #2T were each mixed at 10 μM or 2.5 μM.
(§4) 50 μL of each of the MMP detection solutions was added to 50 μL of each of the samples, a reaction was performed at 30° C., and MMP activity was evaluated.

[3] = tested on: MMP in the MDA-MB-231-derived extracellular vesicles; experiment: Digital detection of MDA-MB-231-derived extracellular vesicles through MMP activity in wells (SB substrates); details: for Expected value λ / Number of positives / Positive ratio: 6 h; for Extracellular vesicle concentration / Expected value λ (×1): Example 35, 6 h; for Extracellular vesicle concentration: at a concentration of x1, 50 fL; for Expected value λ (×1): from power approximation equation
Description: The concentration of the solution is 10 μg/mL. […] The solution was further diluted 2-fold to prepare a standard sample at a concentration of x1/4, further diluted 3-fold to prepare a standard sample at a concentration of x1/12, and further diluted 3-fold to prepare a standard sample at a concentration of x1/36. Thus, the standard samples with four concentrations were prepared.
The concentration of the solution is 6.7 μg/mL.
In addition, for detection of MMP activity, 1 mM SB2, SB6, SB7, SB9, or SB10 and 1 mM Custom #2T were diluted with the buffer (4) to prepare 15 kinds of MMP detection solutions in which any one of SB2, SB6, SB7, SB9, and SB10 and Custom #2T were each mixed at 10 μM, 5 μM, or 2.5 μM. In addition, 1 mM Alexa Fluor 647 was used as a standard fluorescent substance, and each of the MMP14 detection solutions contained the standard fluorescent substance at a final concentration of 2 μM.
as §4

[4] = tested on: MMP in the A549-derived extracellular vesicles; experiment: Evaluation of MMP activity of A549-derived extracellular vesicles with 96-well plate (SensoLyte 520 MMP Substrate Sampler Kit); details: Example 34, EV 4 μg/mL, reporter 5 μM, buffer (4)
Description: The MMP14 activity was evaluated with a 96-well plate (manufactured by Thermo Fisher Scientific Inc., model number: 137101). A fluorescence intensity was measured with a fluorescence plate reader (Synergy MX, manufactured by BioTek Instruments, Inc.) at […] every 5 min for 1 hour. For measurement wavelengths, an excitation wavelength of 485±20 nm and a fluorescence wavelength of 528±20 nm were used.
as §1, §2, §3

[5] = Example 35, 30° C., EV 0 (free of extracellular vesicles, pseudopositive)
[6] = Example 35, 30° C., EV 1/4 a.u.
[7] = Example 35, 30° C., EV 1/12 a.u.
[8] = Example 35, 30° C., EV 1/36 a.u.
[9] = Example 35, reporter 5 μM, 30° C., EV 1/2 a.u. (5 μg/mL in reaction solution)

Substance	Expected value λ (×1) ([1]; Example 36, 4 hr)	Extracellular vesicle concentration ([1]; Example 36, 4 hr)	Expected value λ (×1) ([1]; Example 36, 24 hr)	Extracellular vesicle concentration ([1]; Example 36, 24 hr)	Expected value λ ([1]; 4 hr)	Number of positives ([1]; 4 hr)	Positive ratio ([1]; 4 hr)	Expected value λ ([1]; 24 hr)	Number of positives ([1]; 24 hr)	Positive ratio ([1]; 24 hr)	Fluorescence change after 1 hour of reaction at 30° C. [2]	Expected value λ [3, 5]	Number of positives [3, 5]	Positive ratio [3, 5]	Expected value λ [3, 6]	Number of positives [3, 6]	Positive ratio [3, 6]	Expected value λ [3, 7]	Number of positives [3, 7]	Positive ratio [3, 7]	further results
QXL520-y-Abu-Pro-Cha-Abu-Smc-His-Ala-Dab(5-FAM)-Ala-Lys-NH2 [SB14]	0.02127	4.253e+08 mL⁻¹	0	0 mL⁻¹	0.01063	297	0.01058	0	0	0	6,831 ΔRFU	0.000107	3	0.000107	0.04613	1,266	0.04509	0.05674	1,549	0.05516	change in fluorescence intensity by the MDA-MB-231-derived extracellular vesicles relative to the A549-derived extracellular vesicles ([2]; Example 34, Table 19 vs Table 20): less than 10 times; Expected value λ [3, 8]: 0.007291; Number of positives [3, 8]: 204; Positive ratio [3, 8]: 0.007265; Extracellular vesicle concentration [3]: 4.9e+09 mL⁻¹; Expected value λ (×1) [3]: 0.2451; Expected value λ [3, 9]: 0.141; Number of positives [3, 9]: 3,693; Positive ratio [3, 9]: 0.1315; Fluorescence change after 1 hour of reaction at 30° C. [4]: 801 ΔRFU
QXL520-Pro-Leu-Ala-Tyr-Trp-Ala-Arg-Lys(5-FAM)-NH2 (PLAYWARK; QXL520, 5-FAM, C-terminal amide; printed: Pro-Leu-Ala-Tyr-Trp-Ala-Arg-Lys) [SB10]	0.04444	8.887e+08 mL⁻¹	0.00422	8.437e+07 mL⁻¹	0.02222	617	0.02197	0.00211	59	0.00211	36,239 ΔRFU	3.56E−05	1	3.56E−05	0.5005	11,057	0.3938	0.1265	3,336	0.1188	Fluorescence change after 2 hours of reaction at 30° C. ([2]; 1.25 μM with 1.25 μM Custom #2T): 28,057 ΔRFU; Fluorescence change after 2 hours of reaction at 30° C. ([2]; 5 μM with 5 μM Custom #2T): 33,411 ΔRFU; Expected value λ [3, 8]: 0.04927; Number of positives [3, 8]: 1,350; Positive ratio [3, 8]: 0.04808; Extracellular vesicle concentration [3]: 4.8e+10 mL⁻¹; Expected value λ (×1) [3]: 2.3991; Expected value λ [3, 9]: 1.201; Number of positives [3, 9]: 19,627; Positive ratio [3, 9]: 0.699; Fluorescence change after 1 hour of reaction at 30° C. [4]: 1,220 ΔRFU

Source: patent US20250290928A1, “METHOD, KIT AND DEVICE FOR DETECTING EXTRACELLULAR VESICLES” (priority 2022, published 2025)
